Source: PubChem (Broad Institute)
In the library only some 0.73% were active in any assay of this set; here they are far more common.
XiGFP reactiv: activators of inactive X chromosome reactivation, primary screen, imaging, XiGFP fibroblasts, GFP high-content imaging, set 2 | XiGFP mouse fibroblasts, % GFP-positive cells imaging, 3 d; cells co-treated with 5-aza-dC sensitizer; scaled so ellipticine positive control = 100% | activation, % at 7.58 µM | hit rate 0.055% among 360,000 | AID 743238, 2013;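 active = mean normalized replicate activation at least 10% and every replicate at or above 10%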
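Assay system – SV40-immortalized XiGFP fibroblast cells, line 68-5-11 · Buffer or medium – DMEM supplemented with 5-aza-dC as sensitizing agent · Dosing – one concentration, pinned · Benchmarks – positive control ellipticine, 6 µM final · Times – 3 days compound exposure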
E-selectin induc: E-selectin induction in HUVECs, primary screen, imaging, HUVEC, immunofluorescence imaging, single point. normalized: neutral wells 0, TNF-alpha wells 100. P16581. activation, % at 7.58 µM. hit rate 0.37% among 260,000. AID 686992, 2013;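 active = mean E-selectin-positive cell signal at least 10% of the positive control, reached in at least 60% of replicates, without over 20% cell loss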
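Test system: HUVEC; input: 3,000 HUVEC/well; measured by: immunofluorescence imaging; read-out: % PE-positive cells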
RAD54 inh: inhibitors of human RAD54 branch migration, primary screen, biochemical, fluorescence, single point | hit rate 0.14% among 360,000 | RAD54 Holliday junction branch migration, FAM/BHQ fluorescence | DNA repair and recombination protein RAD54-like (Homo sapiens), Q92698 | inhibition, % at 10.4 µM;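 active = mean normalized replicate activity at least 40 and at least half of replicates scoring 40 or more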;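 note: inhibitors cause a drop in the FAM fluorescence signal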
RAD52 anneal inh: RAD52 DNA annealing inhibitors, primary screen, biochemical, FRET, single point, set 2 | recombinant RAD52 DNA annealing, FRET fluorescence | inhibition, % at 18.7 µM | hit rate 0.46% among 360,000;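 active = every replicate showing at least 50% inhibition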
UUG fidelity: modulators of start codon recognition fidelity in yeast; AID 602363; hit rate 0.13% among 350,000; activity score, % at 18.7 µM; S. cerevisiae UUG-firefly luciferase reporter, luminescence/redox ratio;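 active = replicate mean at a twofold rise or more, about +100% in these data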;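 note: firefly luciferase made from a UUG start codon reports start codon fidelity; reporter light over untreated wells divided by growth signal over untreated wells; some hits fall short of that in this replicate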
Large screens that a line does not name were inactive.

The chains behind the UniProt entries cited, without tags or fusion partners.
DNA repair and recombination protein RAD54-like (Homo sapiens), Q92698, UniProt Q92698, whole entry, looked up: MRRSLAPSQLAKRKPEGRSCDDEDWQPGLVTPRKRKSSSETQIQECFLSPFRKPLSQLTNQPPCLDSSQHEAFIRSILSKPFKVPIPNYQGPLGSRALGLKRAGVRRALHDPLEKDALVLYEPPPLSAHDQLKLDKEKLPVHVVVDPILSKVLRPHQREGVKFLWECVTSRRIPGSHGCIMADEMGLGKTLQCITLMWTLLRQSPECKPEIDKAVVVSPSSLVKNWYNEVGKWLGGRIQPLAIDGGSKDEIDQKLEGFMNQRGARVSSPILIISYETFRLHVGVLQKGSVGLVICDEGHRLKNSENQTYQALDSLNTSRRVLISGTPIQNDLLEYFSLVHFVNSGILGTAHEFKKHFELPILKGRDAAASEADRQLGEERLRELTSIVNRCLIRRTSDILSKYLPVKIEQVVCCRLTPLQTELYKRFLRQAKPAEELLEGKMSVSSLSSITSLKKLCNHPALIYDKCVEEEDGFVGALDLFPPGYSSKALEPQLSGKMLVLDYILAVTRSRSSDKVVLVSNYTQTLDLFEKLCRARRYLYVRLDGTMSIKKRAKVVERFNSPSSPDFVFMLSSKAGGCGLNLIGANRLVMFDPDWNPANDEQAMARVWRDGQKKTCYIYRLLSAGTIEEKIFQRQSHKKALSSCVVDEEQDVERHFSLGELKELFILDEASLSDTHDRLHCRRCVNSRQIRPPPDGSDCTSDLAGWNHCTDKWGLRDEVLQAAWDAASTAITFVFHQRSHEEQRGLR

CC1CN(S(=O)(=O)c2ccc(F)cc2)CN1C(=O)N1CCOCC1 (stereo unspecified)	none (no result: E-selectin induc)
O=C(N/N=C/c1ccc(Br)s1)c1ccc([N+](=O)[O-])cc1	XiGFP reactiv 96.8 (no result: RAD54 inh, UUG fidelity)
Cc1ccc(S(=O)(=O)Nc2ccc3c(c2)C(=O)N([C@H](C)CO)C[C@H](C)[C@@H](CN(C)CC2CCCCC2)OCCCC[C@@H](C)O3)cc1	none
Cc1ccc(S(=O)(=O)Nc2ccc3c(c2)C(=O)N([C@H](C)CO)C[C@H](C)[C@H](CN(C)CC2CCCCC2)OCCCC[C@@H](C)O3)cc1	RAD52 anneal inh 55.0
Cc1ccc(S(=O)(=O)Nc2ccc3c(c2)C(=O)N([C@@H](C)CO)C[C@@H](C)[C@@H](CN(C)CC2CCCCC2)OCCCC[C@@H](C)O3)cc1	RAD52 anneal inh 56.3
Cc1ccc(S(=O)(=O)Nc2ccc3c(c2)C(=O)N([C@@H](C)CO)C[C@H](C)[C@H](CN(C)CC2CCCCC2)OCCCC[C@H](C)O3)cc1	none
C[C@H]1CN([C@@H](C)CO)C(=O)Cc2cc(NC(=O)Nc3ccc(F)cc3)ccc2O[C@@H]1CN(C)Cc1ccccc1	none
C[C@@H]1CN([C@H](C)CO)C(=O)c2cccc(NC(=O)C3CCCCC3)c2O[C@@H]1CN(C)S(=O)(=O)c1ccc(Cl)cc1	none
CCCC#Cc1ccc2c(c1)O[C@H](CN(C)C(=O)CN(C)C)[C@@H](C)CN([C@@H](C)CO)S2(=O)=O	none
CCc1csc(N2[C@H](CO)[C@@H](c3ccc(-c4ccc(F)cc4)cc3)[C@@H]2C#N)n1	none
COc1ccc(CN(C)C[C@@H]2Oc3ccc(NC(=O)Nc4ccc5c(c4)OCO5)cc3C(=O)N([C@@H](C)CO)C[C@@H]2C)cc1	none
COc1ccc(CN(C)C[C@@H]2Oc3ccc(NC(=O)Nc4ccc5c(c4)OCO5)cc3C(=O)N([C@@H](C)CO)C[C@H]2C)cc1	RAD54 inh 61.3
COc1ccc(CN(C)C[C@@H]2Oc3ccc(NC(=O)Nc4ccc5c(c4)OCO5)cc3C(=O)N([C@H](C)CO)C[C@H]2C)cc1	RAD54 inh 66.8
O=C(Nc1ccccc1)[C@@H]1[C@@H](CO)[C@@H]2Cn3c(cccc3=O)[C@H]1N2C(=O)c1ccc(F)cc1	none (no result: UUG fidelity)
CC(C)(C)c1ccc(C(=O)Nc2ccc3c(c2)C(=O)NC3=O)cc1	E-selectin induc 137.5
CCC(=O)N(C)C[C@H]1Oc2cc(C#Cc3ccccc3)ccc2S(=O)(=O)N([C@H](C)CO)C[C@H]1C	none
C[C@H](CO)N1C[C@H](C)[C@@H](CN(C)C)Oc2cc(C#Cc3ccccc3F)ccc2S1(=O)=O	E-selectin induc 103.7
C[C@@H]1CN([C@@H](C)CO)S(=O)(=O)c2ccc(C#Cc3ccccc3F)cc2O[C@@H]1CN(C)C	none
CCC(=O)N(C)C[C@@H]1Oc2cc(C#Cc3ccccc3)ccc2S(=O)(=O)N([C@H](C)CO)C[C@@H]1C	none
C[C@H]1CN([C@@H](C)CO)S(=O)(=O)c2ccc(C#Cc3ccccc3)cc2O[C@H]1CN(C)C(=O)CN(C)C	RAD52 anneal inh 70.1
C[C@@H]1CN([C@@H](C)CO)S(=O)(=O)c2ccc(C#Cc3ccccc3)cc2O[C@@H]1CN(C)C(=O)CN(C)C	RAD52 anneal inh 50.5
O=C(C[C@H]1CC[C@H]2[C@@H](COC[C@H](O)CN2C(=O)Cc2ccccc2)O1)NC1Cc2ccccc2C1	none (no result: RAD52 anneal inh, UUG fidelity)
COc1ccc(CN(C)C[C@H]2OCCCC[C@H](C)Oc3ccc(NS(=O)(=O)c4cn(C)cn4)cc3C(=O)N([C@H](C)CO)C[C@H]2C)cc1	none
C[C@@H]1CN([C@@H](C)CO)C(=O)Cc2cc(NC(=O)Nc3cccc4ccccc34)ccc2O[C@H]1CN(C)Cc1ccc(C(=O)O)cc1	none
CN(C)CC#Cc1ccc([C@@H]2[C@H](CO)N3CCCCN(C(=O)C4CCCC4)C[C@@H]23)cc1	none (no result: XiGFP reactiv, E-selectin induc)
CC(C)C(OC(=O)c1nsc(Cl)c1Cl)C(=O)NCc1ccccc1 (stereo unspecified)	E-selectin induc 32.3
CN1c2ccc(C3=CCCCC3)cc2[C@H]2[C@H](CCN2C(=O)NC2CCCC2)[C@@H]1CO	none (no result: XiGFP reactiv, E-selectin induc, RAD54 inh, UUG fidelity)
